Data: patent EP0930314A1, “p-TOLUENESULFONATE HYDRATE OF THIAZOLINE COMPOUND” (TAISHO PHARMACEUTICAL CO. LTD, priority 1996, dated 1998)

By UniProt entry, the sequences of proteins in these tests, tags left out. Residues count along the entry.
UniProt P05106, 27-788: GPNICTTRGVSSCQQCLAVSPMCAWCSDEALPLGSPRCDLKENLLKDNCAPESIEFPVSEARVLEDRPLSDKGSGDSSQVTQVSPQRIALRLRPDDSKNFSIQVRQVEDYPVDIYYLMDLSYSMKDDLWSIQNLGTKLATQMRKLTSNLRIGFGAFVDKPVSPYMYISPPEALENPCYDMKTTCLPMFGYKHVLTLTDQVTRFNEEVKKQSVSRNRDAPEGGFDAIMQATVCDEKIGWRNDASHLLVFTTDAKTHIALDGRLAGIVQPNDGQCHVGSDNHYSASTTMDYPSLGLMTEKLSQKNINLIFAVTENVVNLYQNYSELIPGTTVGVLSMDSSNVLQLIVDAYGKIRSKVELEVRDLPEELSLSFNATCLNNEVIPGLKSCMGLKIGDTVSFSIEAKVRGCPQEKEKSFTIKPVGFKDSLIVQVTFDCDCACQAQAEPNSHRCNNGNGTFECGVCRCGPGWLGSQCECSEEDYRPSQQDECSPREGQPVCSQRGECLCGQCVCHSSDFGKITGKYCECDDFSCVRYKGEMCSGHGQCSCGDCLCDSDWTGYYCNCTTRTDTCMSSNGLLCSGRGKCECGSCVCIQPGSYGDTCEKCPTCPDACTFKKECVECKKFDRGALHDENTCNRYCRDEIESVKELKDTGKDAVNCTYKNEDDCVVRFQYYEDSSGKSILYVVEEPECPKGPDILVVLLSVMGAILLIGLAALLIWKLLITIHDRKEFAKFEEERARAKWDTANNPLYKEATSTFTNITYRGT
UniProt P08514, 32-887 limits assumed: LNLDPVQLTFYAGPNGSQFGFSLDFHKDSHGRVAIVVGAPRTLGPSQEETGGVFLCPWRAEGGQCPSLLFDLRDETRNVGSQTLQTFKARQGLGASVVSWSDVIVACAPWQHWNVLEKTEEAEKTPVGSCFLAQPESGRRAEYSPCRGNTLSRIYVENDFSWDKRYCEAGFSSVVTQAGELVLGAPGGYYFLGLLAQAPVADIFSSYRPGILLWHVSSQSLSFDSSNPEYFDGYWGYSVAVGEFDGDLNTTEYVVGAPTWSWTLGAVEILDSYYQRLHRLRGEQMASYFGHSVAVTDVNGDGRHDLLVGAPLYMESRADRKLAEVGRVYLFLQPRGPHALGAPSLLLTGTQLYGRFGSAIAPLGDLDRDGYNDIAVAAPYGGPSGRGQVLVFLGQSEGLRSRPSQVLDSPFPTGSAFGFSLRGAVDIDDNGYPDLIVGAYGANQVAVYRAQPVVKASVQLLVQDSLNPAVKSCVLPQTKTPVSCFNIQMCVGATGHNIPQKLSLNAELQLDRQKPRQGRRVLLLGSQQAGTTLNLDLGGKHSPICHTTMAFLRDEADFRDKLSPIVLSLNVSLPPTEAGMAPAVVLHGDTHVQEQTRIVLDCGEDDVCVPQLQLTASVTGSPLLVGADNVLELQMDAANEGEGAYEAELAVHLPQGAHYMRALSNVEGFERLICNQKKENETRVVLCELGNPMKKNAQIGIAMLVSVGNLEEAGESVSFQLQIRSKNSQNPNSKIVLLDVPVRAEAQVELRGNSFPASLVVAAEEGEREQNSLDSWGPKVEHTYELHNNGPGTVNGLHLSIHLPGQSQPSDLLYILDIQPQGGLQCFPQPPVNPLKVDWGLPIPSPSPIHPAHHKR
UniProt P08514, 891-1039 partner limits assumed: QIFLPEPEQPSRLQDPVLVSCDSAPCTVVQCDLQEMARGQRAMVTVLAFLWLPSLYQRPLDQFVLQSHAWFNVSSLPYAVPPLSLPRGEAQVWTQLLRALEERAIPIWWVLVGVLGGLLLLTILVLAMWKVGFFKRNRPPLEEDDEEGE

Biological target: Purified GPIIb/IIIa receptor (Homo sapiens, UniProt P05106+P08514)
Assay: Fibrinogen receptor (GPIIb/IIIa) binding inhibition test (solid-phase, ELISA detection of bound fibrinogen)
Set-up: made in house
Conditions: inhibition of fibrinogen (2 µg/ml) binding to solid phased purified GPIIb/IIIa, 4°C, 16 hours
Experimental: Purified GPIIb/IIIa was prepared by referring to the methods of Pytela et al (Science, 231 (1986) 1559) and a binding measurement system of solid phased GPIIb/IIIa was carried out by referring to the method of Kouns et al (Blood, 80 (1992) 2539).
Purified GPIIb/IIIa receptor was solidified on 96-well microtiter plates by reacting in a solution (pH 7.4) containing 20 mM Tris-hydrochloric acid, 150 mM sodium chloride, 1 mM calcium chloride, 1 mM magnesium chloride and 0.0005 % Triton X-100 at 4°C for 16 hours. The solid phase was then washed once with a solution (pH 7.4) containing 20 mM Tris-hydrochloric acid, 150 mM sodium chloride, 1 mM calcium chloride, 1 mM magnesium chloride and 0.05 % Tween 20 (Buffer B), and blocked by a solution (pH 7.4) containing 20 mM Tris-hydrochloric acid, 150 mM sodium chloride, 1 mM calcium chloride, 1 mM magnesium chloride and 25 % Block Ace in an amount of 150 µL/well at room temperature for 2 hours. […] The amount of the fibrinogen bound to the plates was measured by an enzyme-linked immunosorbent assay method using antifibrinogen primary antibody and peroxidase-labelled secondary antibody to calculate IC50 value. […]

How did the IC50 turn out when `N=C(N)NCCC[C@H](NC(=O)CN)C(=O)NCC(=O)N[C@@H](CC(=O)O)C(=O)N[C@@H](CO)C(=O)O` [GRGDS, Gly-Arg-Gly-Asp-Ser] was run?
The IC50 was 680 nM.
